Data from patent US20240426809A1, “EVALUATION METHOD OF ANTICANCER DRUG AND SELECTION METHOD OF ANTICANCER DRUG” (TOPPAN Holdings Inc., priority 2023, published 2024).

Test system: EML4-ALK positive non-small cell lung cancer cell LCC028-3 strain
Test: Sensitivity evaluation, 3D culture compared with 2D culture (Example 4)
Format: cell-based
Settings: LCC028-3, cell structure (3D) compared with 2D-cultured cells
Experimental: HUVEC was mixed with NHDF such that HUVEC was 1.5% (number of cells/number of cells) with respect to NHDF, and centrifuged, and the supernatant was removed, and then Hep/Col solution (a mixture solution of heparin and collagen) was added thereto. Next, the supernatant was removed after centrifugation, and then the cells were suspended in a culture medium. The suspension was performed such that the total liquid amount was 135 μL per 0.9×10^6 particles. The cells suspended in the culture medium were seeded in a transwell insert-integrated 96-well (0.4 μm polyester membrane) treated with fibronectin coding, and the cells were precipitated by plate centrifugation (400 G, 2 minutes) and cultured in an incubator at 37° C. in an atmosphere of 5% CO2 to obtain a cell structure consisting of NHDF and HUVEC. On the next day of the start date of the culture, an appropriate amount of cancer cells was seeded on the top surface of the cell structure and cultured to construct a cell structure containing cancer cells, NHDF, and HUVEC.
First, the cancer cells were seeded on a black plate (transparent bottom) at an appropriate seeding number determined in advance. On the next day of the seeding, an anticancer drug solution (a solution containing an anticancer drug in ⅓ amount of the culture medium at the time of seeding) was added to the culture medium to perform drug treatment. […]

For `CCc1cc2c(cc1N1CCC(N3CCOCC3)CC1)C(C)(C)c1[nH]c3cc(C#N)ccc3c1C2=O` [ALK inhibitor, Alectinib], the anticancer effect was “smaller” and the “relative cell survival rate” value was “higher”.
